Experimental findings from ChEMBL document CHEMBL1134181, “Synthesis and biological evaluation of novel amides of polyunsaturated fatty acids with dopamine” (Bioorg Med Chem Lett, 2001) are described below.

Amino acid sequences for entries named in this document (tags omitted).
UniProt P20272, whole entry: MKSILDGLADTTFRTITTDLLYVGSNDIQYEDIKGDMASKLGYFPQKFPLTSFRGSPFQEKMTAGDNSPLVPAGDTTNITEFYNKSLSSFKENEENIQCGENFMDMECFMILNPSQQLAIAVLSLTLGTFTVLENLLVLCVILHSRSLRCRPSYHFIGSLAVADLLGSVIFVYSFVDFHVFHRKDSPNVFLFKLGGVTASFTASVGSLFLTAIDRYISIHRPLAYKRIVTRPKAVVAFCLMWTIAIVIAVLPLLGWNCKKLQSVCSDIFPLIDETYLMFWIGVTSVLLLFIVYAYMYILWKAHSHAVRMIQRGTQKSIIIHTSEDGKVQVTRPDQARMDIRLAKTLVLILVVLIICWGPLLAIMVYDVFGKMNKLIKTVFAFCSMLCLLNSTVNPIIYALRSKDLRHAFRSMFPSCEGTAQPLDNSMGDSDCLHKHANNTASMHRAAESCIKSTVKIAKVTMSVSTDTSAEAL

pKi: −log10 of the molar value.

The experiment addresses Cannabinoid receptor 1 (Rattus norvegicus, UniProt P20272). The experiment in a line: Concentration required to displace 0.4 nM [3H]SR-141,716A from CB1 receptor in rat brain preparations in the presence of 0.1 mM phenylmethyl sulfonyl fluoride. The class given is tissue-based.

For the molecule `CCCCC/C=C\C/C=C\C/C=C\C/C=C\CCCC(=O)NCCO` [ANANDAMIDE], the pKi is 6.10.

One may read the pKi as the negative decadic logarithm of the Ki, by convention in mol/L.
